Reference: paper PMC9246766 (Pharmaceutical research, 2022)
pIC50: −log10 of the molar value.

Biological target: T1, OCT3 (Homo sapiens, UniProt O75751)
T1 sequence (O75751 1-556): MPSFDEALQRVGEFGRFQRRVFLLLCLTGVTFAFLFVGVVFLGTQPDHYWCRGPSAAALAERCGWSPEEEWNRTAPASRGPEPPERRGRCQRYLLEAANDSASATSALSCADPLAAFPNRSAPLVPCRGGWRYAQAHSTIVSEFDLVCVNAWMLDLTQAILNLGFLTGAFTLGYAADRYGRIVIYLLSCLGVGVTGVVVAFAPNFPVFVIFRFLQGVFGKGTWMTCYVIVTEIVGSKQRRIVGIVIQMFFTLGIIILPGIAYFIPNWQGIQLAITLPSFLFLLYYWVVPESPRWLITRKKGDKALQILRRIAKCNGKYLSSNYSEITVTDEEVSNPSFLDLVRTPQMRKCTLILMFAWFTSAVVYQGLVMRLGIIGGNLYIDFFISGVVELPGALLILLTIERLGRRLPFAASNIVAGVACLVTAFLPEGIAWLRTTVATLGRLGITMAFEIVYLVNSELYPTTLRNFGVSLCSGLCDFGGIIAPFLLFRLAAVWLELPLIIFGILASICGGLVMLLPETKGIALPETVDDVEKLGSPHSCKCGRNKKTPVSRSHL
Assay: IC50 determination against OCT3-mediated ASP+ uptake in HEK-293 cells overexpressing OCT3
Type: cell-based

Cc1nc2n(c(=O)c1CCN1CCC(c3noc4cc(F)ccc34)CC1)CCCC2 [risperidone]
pIC50: 5.72
